Source: paper PMC4740573 (Clinical Drug Investigation, 2015)

Chains of the proteins cited; added tags and fusions are not shown. Residues count along the entry.
UniProt P00743, 41-180 limits assumed: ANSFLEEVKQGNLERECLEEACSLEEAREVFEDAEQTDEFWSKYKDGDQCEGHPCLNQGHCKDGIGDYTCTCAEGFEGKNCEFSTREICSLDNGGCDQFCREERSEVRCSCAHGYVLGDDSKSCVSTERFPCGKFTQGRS
UniProt P00743, 234-492 limits assumed: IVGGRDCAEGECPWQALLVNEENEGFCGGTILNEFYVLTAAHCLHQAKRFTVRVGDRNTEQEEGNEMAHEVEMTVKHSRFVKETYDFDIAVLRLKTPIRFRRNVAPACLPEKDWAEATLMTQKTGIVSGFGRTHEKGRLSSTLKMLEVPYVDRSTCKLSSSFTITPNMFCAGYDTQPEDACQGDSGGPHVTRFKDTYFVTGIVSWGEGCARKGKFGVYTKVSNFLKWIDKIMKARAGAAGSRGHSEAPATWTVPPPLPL

Biological target: factor Xa (FXa) (Bos taurus, UniProt P00743)
Assay: Anti-FXa, Biophen heparin 6 assay
Format: in vivo, human
Settings: for Anti-FXa A max / Anti-FXa A min / Anti-FXa AUEτ: mean ± SD
[1] = day 4, edoxaban after switching from dabigatran etexilate (treatment 3)
[2] = day 4, edoxaban after switching from rivaroxaban (treatment 2)
[3] = day 4, edoxaban alone (treatment 1)

## CN1CCc2nc(C(=O)N[C@@H]3C[C@@H](C(=O)N(C)C)CC[C@@H]3NC(=O)C(=O)Nc3ccc(Cl)cn3)sc2C1 [Edoxaban, edoxaban]
[1]
  Anti-FXa A max: 2.83 ± 1.27 IU/mL
  Anti-FXa A min: 0.100 ± 0.000 IU/mL
  Anti-FXa AUEτ: 17.3 ± 5.31 IU/mL·h
Day 4, edoxaban after switching from dabigatran etexilate (treatment 3), median (minimum, maximum)
  Anti-FXa T max: 1.00 (0.50, 3.00) h
[2]
  Anti-FXa A max: 3.23 ± 1.10 IU/mL
  Anti-FXa A min: 0.17 ± 0.09 IU/mL
  Anti-FXa AUEτ: 21.9 ± 5.26 IU/mL·h
[3]
  Anti-FXa A max: 3.14 ± 0.944 IU/mL
  Anti-FXa A min: 0.12 ± 0.03 IU/mL
  Anti-FXa AUEτ: 20.7 ± 4.36 IU/mL·h
Edoxaban alone (treatment 1), return to baseline by 24 h
  time to peak effect on anti-FXa: 1 to 2 h
